Chains of the proteins cited; added tags and fusions are not shown. Residues count along the entry.
UniProt P11717, 41-2491, species assumed: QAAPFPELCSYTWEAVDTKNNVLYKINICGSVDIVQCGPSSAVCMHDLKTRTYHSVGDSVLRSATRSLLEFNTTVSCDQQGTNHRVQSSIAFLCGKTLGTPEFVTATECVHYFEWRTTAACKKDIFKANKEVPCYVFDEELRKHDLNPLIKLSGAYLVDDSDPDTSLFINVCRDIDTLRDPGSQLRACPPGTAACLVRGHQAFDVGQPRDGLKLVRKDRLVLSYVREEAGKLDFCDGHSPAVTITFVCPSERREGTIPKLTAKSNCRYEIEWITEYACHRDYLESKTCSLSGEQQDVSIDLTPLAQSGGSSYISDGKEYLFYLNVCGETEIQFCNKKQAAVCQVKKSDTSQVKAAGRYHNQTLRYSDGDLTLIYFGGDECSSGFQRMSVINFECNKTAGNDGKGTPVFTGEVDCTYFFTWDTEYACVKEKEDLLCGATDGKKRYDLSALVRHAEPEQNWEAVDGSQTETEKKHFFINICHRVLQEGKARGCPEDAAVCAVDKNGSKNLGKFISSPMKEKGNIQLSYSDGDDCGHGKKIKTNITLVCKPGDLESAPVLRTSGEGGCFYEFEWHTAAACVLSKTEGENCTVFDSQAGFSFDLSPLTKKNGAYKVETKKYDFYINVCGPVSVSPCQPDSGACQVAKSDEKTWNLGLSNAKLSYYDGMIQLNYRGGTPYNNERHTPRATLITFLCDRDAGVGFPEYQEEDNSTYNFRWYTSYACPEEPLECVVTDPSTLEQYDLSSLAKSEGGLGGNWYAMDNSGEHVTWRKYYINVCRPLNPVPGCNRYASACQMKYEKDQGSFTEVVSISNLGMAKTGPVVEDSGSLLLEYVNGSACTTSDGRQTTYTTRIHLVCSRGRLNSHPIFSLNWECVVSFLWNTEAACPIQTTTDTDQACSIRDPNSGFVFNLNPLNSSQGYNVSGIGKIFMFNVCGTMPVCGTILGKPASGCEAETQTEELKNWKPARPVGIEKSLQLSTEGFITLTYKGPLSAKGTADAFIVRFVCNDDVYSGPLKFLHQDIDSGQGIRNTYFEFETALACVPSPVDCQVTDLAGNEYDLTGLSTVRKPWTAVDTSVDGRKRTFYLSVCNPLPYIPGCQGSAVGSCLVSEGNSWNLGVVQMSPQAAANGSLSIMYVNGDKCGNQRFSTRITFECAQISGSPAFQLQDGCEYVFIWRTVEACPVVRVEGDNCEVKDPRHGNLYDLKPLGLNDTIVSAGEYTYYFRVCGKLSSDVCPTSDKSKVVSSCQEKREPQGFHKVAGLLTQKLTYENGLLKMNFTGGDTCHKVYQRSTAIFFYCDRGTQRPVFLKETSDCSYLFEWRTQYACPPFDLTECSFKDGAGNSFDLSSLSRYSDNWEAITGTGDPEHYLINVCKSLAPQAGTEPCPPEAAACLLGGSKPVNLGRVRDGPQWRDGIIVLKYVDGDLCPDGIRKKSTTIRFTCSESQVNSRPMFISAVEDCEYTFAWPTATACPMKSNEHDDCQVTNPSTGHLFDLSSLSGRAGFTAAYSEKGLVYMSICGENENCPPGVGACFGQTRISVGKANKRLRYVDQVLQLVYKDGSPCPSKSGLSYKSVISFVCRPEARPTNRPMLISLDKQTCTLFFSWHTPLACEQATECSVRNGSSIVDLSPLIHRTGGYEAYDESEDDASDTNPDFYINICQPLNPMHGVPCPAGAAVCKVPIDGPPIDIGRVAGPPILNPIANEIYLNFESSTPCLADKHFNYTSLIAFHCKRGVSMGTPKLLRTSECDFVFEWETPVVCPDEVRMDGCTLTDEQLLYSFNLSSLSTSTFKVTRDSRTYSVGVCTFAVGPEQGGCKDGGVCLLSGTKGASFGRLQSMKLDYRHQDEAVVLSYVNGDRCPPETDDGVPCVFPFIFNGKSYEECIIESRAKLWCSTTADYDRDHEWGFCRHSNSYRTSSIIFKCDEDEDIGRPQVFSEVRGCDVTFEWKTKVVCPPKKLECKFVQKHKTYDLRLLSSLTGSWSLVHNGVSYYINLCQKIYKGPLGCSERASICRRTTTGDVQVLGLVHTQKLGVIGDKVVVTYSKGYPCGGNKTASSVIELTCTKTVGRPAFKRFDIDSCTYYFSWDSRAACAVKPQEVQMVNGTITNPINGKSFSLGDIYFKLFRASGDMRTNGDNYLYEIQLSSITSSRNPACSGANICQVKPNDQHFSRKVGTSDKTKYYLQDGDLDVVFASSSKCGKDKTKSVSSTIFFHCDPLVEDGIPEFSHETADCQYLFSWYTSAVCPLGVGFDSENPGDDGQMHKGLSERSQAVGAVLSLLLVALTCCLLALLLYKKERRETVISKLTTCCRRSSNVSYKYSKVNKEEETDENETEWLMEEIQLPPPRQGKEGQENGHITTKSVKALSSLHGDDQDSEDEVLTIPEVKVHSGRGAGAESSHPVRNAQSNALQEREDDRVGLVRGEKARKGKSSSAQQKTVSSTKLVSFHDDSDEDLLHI

In patent publication US20250381254A1, “Augmented Acid Alpha-Glucosidase For The Treatment Of Pompe Disease” (Amicus Therapeutics, Inc., priority 2015, published 2025):

Biological target: CIMPR (Homo sapiens, UniProt P11717)
Assay: CIMPR plate binding assay
Conditions: ATB200 batches
Procedure: In addition to having a greater percentage of rhGAA that can bind to the CIMPR, it is important to understand the quality of that interaction. Lumizyme® and ATB200 rhGAA receptor binding was determined using a CIMPR plate binding assay. Briefly, CIMPR-coated plates were used to capture GAA. Varying concentrations of rhGAA were applied to the immobilized receptor and unbound rhGAA was washed off. The amount of remaining rhGAA was determined by GAA activity.

Row | Substance | Kd [nM]
1 | Batch A: batch of ATB200 with sialic acid 4.0 mol/mol protein and M6P content 3.3 mol/mol protein | 2.7
2 | Batch B: batch of ATB200 with sialic acid 5.4 mol/mol protein and M6P content 2.9 mol/mol protein | 2.9
